Experimental data taken from PubChem BioAssay AID624291 (National Center for Advancing Translational Sciences (NCATS), 2012).
The entries are a selection whose mix differs from that of the whole data set. Records with an inconclusive call do not appear. Calls of active or inactive are those of the source. Calls follow the shape of the dose curve; as a rule, active = well fitted activation curve with a large enough effect; inconclusive = small, poorly fitted or top-dose-only effect; inactive = no such curve, though single readings can be large or run the other way.

test: qHTS for Activators of Integrin-Mediated Alleviation for Muscular Dystrophy; settings: alpha7betagal myoblasts, beta-gal FDG fluorescence, 48 h; at 38.3 µM (top of the series) unless noted;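 also: 100% = response of the positive control SU9516; nearly all actives have a fitted effect of over 60% in size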

SMILES	activation
Nc1ccc([As](=O)(O)c2ccc([N+](=O)[O-])cc2)cc1	inactive: 9.34%
O=C(OC1CN2CCC1CC2)c1cccc(Cl)c1 (stereo not given)	inactive: -20.2%
CC(=O)NC(SC(=S)N(C)C)C(Cl)(Cl)Cl (stereo not given)	inactive: -43.4%
O=[N+]([O-])c1ncn(CCn2cnc([N+](=O)[O-])n2)n1	inactive: 30.2%
O=[As](O)(c1ccccc1)c1ccc(O)cc1	inactive: 6.57%
C[C@H]1OP(=O)(Oc2ccccc2)[C@H](O)[C@H](O)[C@H]1N=[N+]=[N-] (stereo not given in full)	inactive: -24.9%
O=P(Nc1nc2ccccc2s1)(c1ccccc1)c1ccccc1	inactive: -4.11%
COc1ccc(N)c([N+](=O)[O-])c1[N+](=O)[O-]	inactive: 0%
O=P(Nc1ccccn1)(c1ccc(Br)cc1)c1ccc(Br)cc1	inactive: 31.1%
CN(C)C1(CNC(=O)c2ccc(Cl)c(S(N)(=O)=O)c2)CCCCC1	inactive: -16.4%
c1nnnn1CCn1cnnn1	inactive: -29.6%
CC(C)C(=O)NC(Sc1ccccc1)C(Cl)(Cl)Cl (stereo not given)	inactive: 4.23%
O=P(Nc1nccs1)(c1ccccc1)c1ccccc1	inactive: 27.4%
CC1(CBr)Cn2c(nc3ccccc3c2=O)S1 (stereo not given)	inactive: 1.91%
CC(C)/C=N\N=C(\N)N[N+](=O)[O-]	inactive: -30.2%
COc1ccccc1CNC(=O)COC(=O)C(O)(c1ccccc1)c1ccccc1	inactive: 9.86%
CC(C)(C)C(=O)NC(Sc1ncccn1)C(Cl)(Cl)Cl (stereo not given)	inactive: -18.6%
O=P1(N(CCCl)CCCl)NCCC(C(F)(F)F)O1 (stereo not given)	inactive: -11.7%
Clc1n[nH]nc1-c1nn[nH][15n]1	inactive: 10%
CCOP(=O)(Nc1ccc(C)cn1)OCC	inactive: -12.9%
CCOP(=O)(NC(=NC(C)c1ccccc1)NC(C)c1ccccc1)OCC (stereo not given)	inactive: 3%
O=P1(Nc2ccccn2)COc2ccccc2OC1	inactive: 13.5%
CCC1=CC2Cc3nc4ccc(Cl)cc4c(N)c3C(C1)C2 (stereo not given)	inactive: 44.4%

SMILES	activation
Cc1ccc(OCC(=O)OC2CN3CCC2CC3)cc1 (stereo not given)	inactive: 10.1%
O=[As](O)(c1cccs1)c1cccs1	inactive: -5.62%
O=P1(Nc2ccc(Br)cn2)COc2ccccc2OC1	inactive: 0%
NS(=O)(=O)c1cccc(NC(=O)COC(=O)C(O)(c2ccccc2)c2ccccc2)c1	inactive: 0%
Nc1cccc([As](=O)(O)c2ccccc2)c1	inactive: -22.7%
O=P1(Nc2ncccn2)COc2ccccc2OC1	inactive: 0%
CCCC1OP(=O)(Nc2ccccc2)OCC1CC (stereo not given)	inactive: -22.3%
O=C(/C=C/c1ccccc1)OC1CN2CCC1CC2 (stereo not given)	inactive: -9.39%
CN(C)C1(CNC(=O)c2ccc(S(C)(=O)=O)cc2)CCCCC1	inactive: 18.8%
CC1CCC(C(C)C)C(OP(=O)(Nc2ccccn2)c2ccccc2)C1 (stereo not given)	inactive: -51.2%
Cc1ccc(C(=O)OC2CN3CCC2CC3)cc1 (stereo not given)	inactive: 3.81%
Cc1nn(-c2ccccc2)c2c1P(=O)(N1CCOCC1)N(C)C(c1ccccc1)=N2 (stereo not given)	inactive: 0.755%
O=[N+]([O-])c1ccc2c(c1)nnn2O	inactive: 16.8% [at 7.66 µM]
CN(C)C(=O)c1cc([N+](=O)[O-])cc2c1-c1c(cc([N+](=O)[O-])cc1[N+](=O)[O-])C2=O	inactive: -59.1%
CCOP1(=S)c2c(C)nn(CCC#N)c2N=C(c2ccc(F)cc2)N1C (stereo not given)	inactive: -25.1%
N#CCCN(C(=O)COC(=O)C(O)(c1ccccc1)c1ccccc1)c1ccc(F)cc1	inactive: -5.22%
NC(=O)Nc1ccc([As](=O)(O)O)cc1	inactive: -32.1%
Nc1ccccc1[As](=O)(O)c1ccccc1	inactive: -12.4%
O=C(O)COc1ccc([As](=O)(O)O)cc1[N+](=O)[O-]	inactive: 0%
CS(=O)(=O)c1cc([N+](=O)[O-])c2no[n+]([O-])c2c1	inactive: -29.9%
O=P(Nc1nccs1)(Oc1ccccc1)Oc1ccccc1	inactive: 24.9%
O=P(Nc1nccs1)(c1ccccc1)c1nc2ccccc2s1 (stereo not given)	inactive: -39.3%
CCOP1(=S)c2c(C)nn(CCC#N)c2N=C(c2ccccc2F)N1C (stereo not given)	inactive: 7.58%

SMILES	activation
CCCOP(=S)(Nc1nc(N)cc(=O)[nH]1)OCCC	inactive: -15.8%
Cc1ccc(NCCc2c([N+](=O)[O-])cc([N+](=O)[O-])cc2[N+](=O)[O-])cc1	inactive: -31%
Nc1cccc2c([As](=O)(O)O)cccc12	inactive: -24.7%
Cc1cccc(OCC(=O)OC2CN3CCC2CC3)c1 (stereo not given)	inactive: 1.6%
O=[As](O)(c1cccc(O)c1)c1cccc(O)c1	inactive: -21%
CS(=O)(=O)c1ccc(Cl)c(NC(=O)COC(=O)C(O)(c2ccccc2)c2ccccc2)c1	inactive: -27.7%
O=[As](O)(O)c1cccnc1	inactive: 27.4%
COc1cc(C(=O)NCC2(N3CCOCC3)CCCCC2)cc(Cl)c1OC(C)C	inactive: -28.4%
O=C(OC1CN2CCC1CC2)c1ccc(Cl)cc1 (stereo not given)	inactive: 0.468%
COc1ccc(N/C(=N/P(=O)(N2CCOCC2)N2CCOCC2)N2CCOCC2)cc1	inactive: -5.4%
O=[N+]([O-])c1cc(Oc2ccc([N+](=O)[O-])cc2C(F)(F)F)cc([N+](=O)[O-])c1	inactive: -40.7%
COc1cc(I)ccc1[As](=O)(O)O	inactive: -35.3%
COc1ccc2nc(NP(=O)(c3ccccc3)c3ccccc3)sc2c1	inactive: 18.4%
O=P1(N(CCCl)CCCl)Nc2ccccc2N1	inactive: 11%
O=P1(N(CCCl)CCCl)OCCCN1CCCl (stereo not given)	inactive: 16.4%
O=C(OC1CN2CCC1CC2)C12CC3CC(CC(C3)C1)C2 (stereo not given)	inactive: 11.8%
O=[N+]([O-])c1cc([N+](=O)[O-])c(-c2ccn[nH]2)s1	inactive: -55.8%
CC(C)NC(=O)NP(=O)(Oc1ccccc1)Oc1ccccc1	inactive: 17.5%
CCN(CC)C(=S)SC(NC=O)C(Cl)(Cl)Cl (stereo not given)	inactive: -47.4%
O=C(OC1CN2CCC1CC2)c1cccc2[nH]cnc12 (stereo not given)	inactive: -9.89%
COC(=O)C1(C)COP(=O)(N2CCCCCC2)OC1 (stereo not given)	inactive: -0.89%
CC(C)c1ccc(OP(=O)(Nc2ccccn2)Oc2ccccc2F)cc1 (stereo not given)	inactive: -23.1%
ClCCSc1nnc(-c2cccnc2)o1	inactive: 2.84%

SMILES	activation
Cc1ccc(OP(=O)(Nc2ccc([N+](=O)[O-])cn2)Oc2ccc(C)cc2)cc1	inactive: -12.1%
O=[N+]([O-])c1ccc(-c2cc([N+](=O)[O-])c(O)c([N+](=O)[O-])c2)cc1	inactive: 6.42%
C[As](=O)(O)c1cccc(C(=O)O)c1	inactive: 10.1%
O=[As](O)(c1ccc(O)cc1)c1ccccc1O	inactive: 3.49%
O=[N+]([O-])c1ccc(Nc2ccc(Oc3ccc([N+](=O)[O-])cc3[N+](=O)[O-])cc2)c([N+](=O)[O-])c1	inactive: -4.1%
O=P(Nc1ccccn1)(c1cccc2ccccc12)c1cccc2ccccc12	inactive: -7.19%
Cc1cc(SC(NC=O)C(Cl)(Cl)Cl)ncn1 (stereo not given)	inactive: -8.39%
Cc1cc(SC(NC(=O)c2ccccc2)C(Cl)(Cl)Cl)nc(C(C)C)n1 (stereo not given)	inactive: 7.47%
CCCCOc1ccc(C(=O)NCC2(N3CCCCC3)CCCCC2)cc1OC	inactive: -7.91%
COP(=O)(OC)N1CC1c1ccccc1 (stereo not given)	inactive: 13.5%
CC1CCNP(=O)(N(CCCl)CCCl)O1 (stereo not given)	inactive: 18.5%
CCOC(=O)Nc1ccc([As](=O)(O)O)c(O)c1	inactive: -14.1%
O=C(O)C(O)c1ccc(N(CCCl)CCCl)cc1 (stereo not given)	inactive: 4.88%
CCC(C)N(CC(C)C)C(=S)SC(NC(C)=O)C(Cl)(Cl)Cl (stereo not given)	inactive: -53.7%
CCOC(=O)c1ccc(NC(=O)C(C)(CCl)SC)cc1 (stereo not given)	inactive: 7.55%
CSc1ccc(Nc2c([N+](=O)[O-])cc([N+](=O)[O-])cc2[N+](=O)[O-])cc1	inactive: -67.3%
O=C(OC1CN2CCC1CC2)c1cccc([N+](=O)[O-])c1 (stereo not given)	inactive: -21.8%
O=C(Nc1ccncc1[N+](=O)[O-])c1ccc([N+](=O)[O-])cc1[N+](=O)[O-]	inactive: -3.57%
O=C(COc1ccccc1)OC1CN2CCC1CC2 (stereo not given)	inactive: -1.92%
O=C(O)C(=O)c1ccc(N(CCCl)CCCl)cc1	inactive: -11.2%
COP1(=S)c2c(C)nn(CCC#N)c2N=C(c2ccc(F)cc2)N1C (stereo not given)	inactive: 15.7%
